# PubChem BioAssay AID720519 (National Center for Advancing Translational Sciences (NCATS), 2013)
# The list shows a part of the results, in another mix than the full data. Records with an inconclusive call do not appear. Active and inactive are the calls of the source. Calls follow the shape of the dose curve; as a rule, active = well fitted activation curve with a large enough effect; inconclusive = small, poorly fitted or top-dose-only effect; inactive = flat fitted curve, though single readings scatter.
# Experiment: qHTS for Inhibitors of Cell Surface uPA Generation: Confirmatory Assay for Cherry-picked Compounds; also: 0% is about no effect
# Conditions: cell surface uPA activity generation, qHTS confirmation; at 115 µM (top of the series)
# Description: The overall objective of this project is to perform a quantitative high throughput screen (qHTS) to identify novel compounds that inhibit the generation of cell surface urokinase activity. The urokinase plasminogen activator (uPA) is one of the two primary endogenous systems that mediate plasminogen activation into plasmin. Members of this system, including uPA and its receptor (uPAR), are overexpressed in several malignant tumors. This system plays a major role in adhesion, migration, invasion and metastasis of cancer cells. Small molecule inhibitors of the uPA system will serve as probes to understand the molecular mechanisms of the uPA cascade and better understanding the micro-environmental circumstances that facilitate the activation of plasminogen by uPA, and finally may provide novel candidate agents for anticancer drug therapy.
# […] Activation of cell viability (increase in luminescence signal) due to inhibition of the cell surface uPA generation is the desired outcome of this assay. […]
# Cultured RAW 264.7 were dispensed into 1536-well clear bottom, white walled tissue culture plates at a density of 4000 cells/well and were incubated overnight (12-16 h) at 37 C in a 5% CO2 incubator. […] Three microliter of PerkinElmer ATPlite was then added to each well and luminescence was detected using the PerkinElmer ViewLux plate reader for a 5 sec exposure.
smiles,measurement,value
O=C(O)CNc1ccc([As](=O)(O)O)cc1,inhibition,inactive: 0.952%
